Experimental findings from patent US20060128688A1, “Asenapine for the treatment of schizophrenia in a patient with overweight or predisposition for overweight” (priority 2003, published 2006) are described below.

[1] abbreviates: All-Subjects-Treated Group, baseline to day 42 or final day of treatment.

Read-outs that look alike come from different tables or passages of the source.

For the compound `Cc1nc2n(c(=O)c1CCN1CCC(c3noc4cc(F)ccc34)CC1)CCCC2` [risperidone], under setting [1], the “subjects with clinically significant decrease of ≧7% from baseline in body weight, %” value is listed as 2.1% and the “subjects with clinically significant weight gain (increase from baseline of ≧7%), %” value is 17%. Further, the “subjects with clinically significant weight gain (increase from baseline of ≧7%), %” value (All-Subjects-Treated Group, baseline to day 42 or final day of treatment, listed as Risperidone) stood at 17.0%. Moreover, the “increase in body weight from baseline” value (at end point, group result) came out at 1.9%.
